Earlier results in US11439626B2 (Icahn School of Medicine at Mount Sinai, priority 2019, dated 2022).

What was measured:
[1] = cited from earlier work
patients with ALS = details: cited from earlier work

Nc1nc2ccc(OC(F)(F)F)cc2s1 [riluzole, 2-Amino-6-(trifluoromethoxy)benzothiazole]
Ka ([1]; population estimate (THETA)): 5 h⁻¹
V/F Inter-subject variability ([1]; variability parameter (ETA)): 0.352
survival compared to placebo (patients with ALS; 50 mg/day, ALS patients): not statistically different from placebo
survival rate compared to placebo (patients with ALS; 100 mg/day (50 mg twice daily), ALS patients): statistically significant survival rate
survival rates compared to the dose of 100 mg/day (patients with ALS; 200 mg/day, ALS patients): did not have improved survival rates
tolerability (patients with ALS; doses of up to 100 mg twice daily, dose escalation study): well tolerated
